By UniProt entry, the sequences of proteins in these tests, tags left out.
UniProt P29477, whole entry: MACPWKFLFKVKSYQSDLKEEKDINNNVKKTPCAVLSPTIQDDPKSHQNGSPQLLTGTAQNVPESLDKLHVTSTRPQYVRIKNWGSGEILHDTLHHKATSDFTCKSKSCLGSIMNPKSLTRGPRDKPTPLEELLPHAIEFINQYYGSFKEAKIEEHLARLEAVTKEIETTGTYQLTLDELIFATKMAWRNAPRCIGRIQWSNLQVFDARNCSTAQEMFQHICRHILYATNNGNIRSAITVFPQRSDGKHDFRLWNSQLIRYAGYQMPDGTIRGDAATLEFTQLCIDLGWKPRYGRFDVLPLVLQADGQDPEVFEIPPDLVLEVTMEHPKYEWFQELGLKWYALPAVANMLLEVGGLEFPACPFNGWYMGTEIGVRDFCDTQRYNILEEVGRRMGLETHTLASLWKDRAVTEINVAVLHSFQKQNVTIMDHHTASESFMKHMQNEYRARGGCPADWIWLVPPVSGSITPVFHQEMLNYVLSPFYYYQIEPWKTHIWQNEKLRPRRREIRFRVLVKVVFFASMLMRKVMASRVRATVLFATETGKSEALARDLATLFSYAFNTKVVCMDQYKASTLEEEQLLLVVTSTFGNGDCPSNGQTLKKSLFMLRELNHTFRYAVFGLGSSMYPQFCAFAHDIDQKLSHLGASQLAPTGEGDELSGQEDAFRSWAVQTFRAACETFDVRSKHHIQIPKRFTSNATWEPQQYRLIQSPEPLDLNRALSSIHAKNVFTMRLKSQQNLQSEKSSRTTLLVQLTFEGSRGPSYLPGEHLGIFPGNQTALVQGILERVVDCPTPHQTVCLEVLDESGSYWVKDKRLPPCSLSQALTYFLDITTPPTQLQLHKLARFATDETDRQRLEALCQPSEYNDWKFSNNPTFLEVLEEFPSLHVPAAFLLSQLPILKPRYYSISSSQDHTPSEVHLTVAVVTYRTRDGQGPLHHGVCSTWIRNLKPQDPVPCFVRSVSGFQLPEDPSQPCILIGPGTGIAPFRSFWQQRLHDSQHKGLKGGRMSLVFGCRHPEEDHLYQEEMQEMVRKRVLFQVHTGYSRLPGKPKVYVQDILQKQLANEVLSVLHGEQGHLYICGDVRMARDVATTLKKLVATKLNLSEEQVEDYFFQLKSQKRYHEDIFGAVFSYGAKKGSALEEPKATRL

In patent US20100105763A1, “PHARMACEUTICAL COMPOSITION, HEALTH FOOD COMPOSITION AND INOS INHIBITORS, CONTAINING THEOPEDERIN DERIVATIVES” (SEOUL NATIONAL UNIVERSITY INDUSTRY FOUNDATION, priority 2006, published 2010):

How the values were obtained:
iNOS = iNOS (Mus musculus, UniProt P29477); assay: iNOS inhibition assay: NO generated by lipopolysaccharide-stimulated Raw264.7 cells, Griess reaction; settings: for iNOS antagonistic activity (in words): at a very low concentration; for CC50: read-out: iNOS (lC50), Raw264.7 cells, lipopolysaccharide stimulation, 12 hours culture with compound, NO by Griess reaction
Description: (§1) Inhibition assay was performed with the compounds (1) and (2), the most representative compounds among those amorphous pure theopederin derivatives (1)-(24), to examine the iNOS inhibitory activity. Particularly, leucocyte originated animal cells (Raw264.7) were cultured in dMEM supplemented with 10% bovine serum and 1% antibiotics for 12 hours in a 5% CO2 incubator. Lipopolysaccharide stimulating the iNOS expression and the compounds (1) and (2) were added thereto, followed by further culture for 12 hours. The amount of NO generated was investigated by measuring the color development by Griess reaction. In the meantime, iNOS inhibitor 1400W was used as a control.

Raw264.7 = assay: Cytotoxicity of theopederin derivatives; settings: for cytotoxicity (in words): at the concentration of iNOS antagonistic activity; for Cytotoxicity: quantity type not stated, cell line presumably Raw264.7
Description: as §1
Theopederin derivatives (1) and (2) were confirmed to have excellent iNOS antagonistic activity at a very low concentration without inducing cytotoxicity.

Row | Structure (SMILES) | iNOS antagonistic activity (in words) (iNOS) | CC50 (iNOS) [nM] | cytotoxicity (in words) (Raw264.7) | Cytotoxicity (Raw264.7) [nM]
1 | C=C1C[C@](OC)([C@H](O)C(=O)N[C@H]2OCO[C@H]3[C@@H]2O[C@H](CO)C(C)(C)[C@@H]3OC)O[C@H](C)[C@@H]1C | excellent iNOS antagonistic activity | 2.6 | without inducing cytotoxicity | 116
2 | C=C1C[C@](OC)([C@H](O)C(=O)N[C@H]2OCO[C@H]3[C@@H]2O[C@H](C[C@H](O)CO)C(C)(C)[C@@H]3OC)O[C@H](C)[C@@H]1C | excellent iNOS antagonistic activity | 30 | without inducing cytotoxicity | 120
